Measured values: patent US7253286B2, “Nitrogen-containing aromatic derivatives” (Eisai Co., Ltd, priority 2000, dated 2007)

Amino acid sequences for entries named in this document (tags omitted). Residues count along the entry.
UniProt P35968, 786-1356 limits assumed: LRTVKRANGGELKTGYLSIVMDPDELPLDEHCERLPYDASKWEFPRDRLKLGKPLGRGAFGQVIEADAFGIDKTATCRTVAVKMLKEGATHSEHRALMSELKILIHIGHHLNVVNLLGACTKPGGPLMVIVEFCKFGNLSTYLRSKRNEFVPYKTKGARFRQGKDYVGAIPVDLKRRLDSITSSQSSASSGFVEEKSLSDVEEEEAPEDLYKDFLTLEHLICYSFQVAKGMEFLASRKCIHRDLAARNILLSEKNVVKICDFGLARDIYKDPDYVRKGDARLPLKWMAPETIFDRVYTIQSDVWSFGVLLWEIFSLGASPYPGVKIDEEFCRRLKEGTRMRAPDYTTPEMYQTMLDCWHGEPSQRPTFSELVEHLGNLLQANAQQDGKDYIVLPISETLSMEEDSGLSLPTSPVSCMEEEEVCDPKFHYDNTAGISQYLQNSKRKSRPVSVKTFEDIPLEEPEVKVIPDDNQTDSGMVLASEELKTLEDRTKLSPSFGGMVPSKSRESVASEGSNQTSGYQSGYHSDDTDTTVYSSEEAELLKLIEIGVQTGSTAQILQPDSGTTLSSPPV

Biological target: VEGFR2 (Homo sapiens, UniProt P35968)
Assay: Inhibition against VEGFR2 kinase (receptor tyrosine kinase activity, HTRF method)
Type: biochemical
Details: read-out: IC50 (concentration required for 50% inhibition of VEGFR2 kinase activity), His6-VEGFR2 cytoplasmic domain, biotin-poly(GT) substrate, ATP, 30° C. 10 minutes
Method: Measurement of Inhibition Against Receptor Tyrosine Kinase Activity
This assay is used to determine inhibition of a test substance on tyrosine kinase activity. DNA coding for the cytoplasmic domain of VEGFR2 is obtained by total cDNA synthesis (Edwards M, International Biotechnology Lab 5(3), 19–25, 1987) or by cloning. Expression in an appropriate expression system can produce a polypeptide with tyrosine kinase activity. […]
The supernatant was added to a Ni—NTA agarose column (3 ml, purchased from Qiagen) equilibrated with Buffer A {20 mM Tris-HCl (pH 8.5), 5 mM 2-mercaptoethanol, 500 mM KCl, 20 mM imidazole, 10% (v/v) glycerol}. […] After dialysis, it was supplied for SDS-electrophoresis, and the recombinant protein (His6-VEGFR2, cytoplasmic domain of VEGFR2 fused with 6 histidine residues at the N-terminus) detected at a molecular weight of approximately 100 kDa with Coumassie Brilliant Blue staining was assayed using BSA (bovine serum albumin, purchased from Sigma Co.) as the standard substance, and stored at −80° C. until use. […]

Row | Structure (SMILES) | IC50 [nM]
1 | CCN(CC)CCCOc1cc2nccc(Oc3ccc(NC(=O)Nc4nccs4)c(F)c3)c2cc1C#N | 70
2 | CCOCCCNC(=O)Nc1ccc(Oc2ccnc3cc(OC)c(C(N)=O)cc23)cc1F | 1.4
